Laboratory results published in patent publication US20260384421A1, “NOVEL COMPOUNDS THAT CAN BE USED AS THERAPEUTIC AGENTS” (published 2026).
Where two headings read alike, the source gives them in different places.

What was measured:
[1] = test system: mitochondrial transmembrane potential Δψm in A-549 cells; assay: mitochondrial activity assay (TMRE staining, mitochondrial transmembrane potential) on A-549 cells; settings: for Activity: relative mitochondrial transmembrane potential Δψm: A-549 cells, compounds at 10 μM, 2 h 40 min, TMRE staining, relative to DMSO = 1.0
Experimental: A decrease in mitochondrial function can be assessed by the relative quantification of the mitochondrial transmembrane potential Δψm. The Adm-decreasing activities of compounds falling under general formula (I) were investigated with tetramethylrhodamine ethyl ester (TMRE) staining on A-549 cells. Access and cultivation method of A-549 cells are as described above. To this end, according cells were seeded into 96-well plates suitable for fluorescence assays (Greiner Bio-One, #655090) at a cell number of 45'000 cells per well. Cells were incubated over night at 37 °C and 5% CO2. This was followed by a complete medium change with 100 μL per well of fresh culture medium pre-warmed to 37 °C. Cells were further incubated at 37 °C and 5% CO2 for three hours. Then the cells were treated with compounds at 10 μM final concentration by adding 100 μL per well of a 2× compound working solution of 1:50 pre-diluted compound DMSO stock-solutions in Hank's Balanced Salt Solution (HBSS, Fisher Scientific, Gibco™ #14025). Cells were incubated for 2 hours and 40 minutes at 37 °C and 5% CO2. Then cells were treated with TMRE (AAT-Bioquest, #22220) at 300 nM final concentration by adding 20 μL per well of a 10×TMRE working solution from a 1:5 pre-diluted TMRE DMSO stock-solution in H2O (Water For Injection, WFI, Fisher Scientific, Gibco™ #A12873). Cells were incubated for further 20 minutes at room temperature in the dark, gently shaking on an orbital shaker (IKA, MTS 2/4 Digital Shaker, shaking at 300 rpm). Extracellular TMRE signal was quenched by adding 20 μL per well of a 1.6 mM solution of Brilliant Black BN (Carl Roth, #7643) in H2O. Cells were further incubated for 60 min at room temperature. Then the readout was taken with a multi-well plate-reader (Tecan Spark®) in the fluorescence mode using a filter for excitation at 535 nm (band width 25 nm) and for emission at 595 nm (band width 35 nm) without plate lid. Treatment for strong decrease in Δψm with the commercial mitochondrial uncoupler compound 2,4-dinitrophenol (DNP, Sigma Aldrich-Merck #34334) at a final concentration of 50 μM was included on every plate for assay quality control.
The assays were performed in two independent biological replicates, each containing three technical replicates for every condition. For every individual plate, the measured fluorescence intensity values of the conditions with compound treatment were normalized against the corresponding equally weighted arithmetic mean of the fluorescence intensity values of the three DMSO treated control wells in order to obtain the relative values to a reference level of 1.0.
The weighted arithmetic mean and the combined standard deviation as defined in the present invention was calculated for each compound as described above. The DNP control decreased the relative mitochondrial transmembrane potential Δψm in A-549 cells to 0.2.

HEP-G2 cells = assay: alamarBlue proliferation assay with HEP-G2 cells; settings: read-out: Activity on HEP-G2: IC50, RPMI 1640 medium, 10% FBS
Text: (§1) These hyperproliferative processes can be benign or malignant and include hyperplasia, neoplasia, cancer and pre-cancerous lesions, and metastases. The antiproliferative activities of compounds falling under general formula (I) were investigated on human primary epidermal keratinocytes (HPEK) and human, murine and canine cell lines derived from hyperproliferative tissue or different cancer types, including MDA-MB-231, ZR-75-30, HCC-1395, HCC-1937, and T-47D all originating from cancer of the breast, JURKAT, RPMI-8402, LOUCY, TANQUE, REC-1, HL-60, NB-4 all originating from different types of blood cancer including lymphoma and leukemia of T-cells, B-cells and myeloid cells, TT originating from cancer of the neuroendocrine system, HeLa originating from cancer of the cervix, 23132/87, SW-948, and HCT-116 all originating from cancer of the gastrointestinal tract including stomach and colon, BHY originating from cancer of the mucosal epithelium, A-431 originating from cancer of the skin, HEP-G2 originating from cancer of the liver, NCI-H460 and A-549 both originating from cancer of the lung, PANC-1 originating from cancer of the pancreas, U-87 MG originating from cancer of the brain, A-375 and RVH-421 both originating from cancer of melanocytes, SW-1353 originating from cancer of bone-derived chondrocytes, C2C12 a mouse cell line originating from hyperproliferative muscle progenitor cells, LL/2 a mouse cell line originating from cancer of the lung, CF21.T a dog cell line originating from cancer of the connective tissue. To this end, according cells were seeded into 96-well plates (CORNING #3598) suitable for fluorescence assays at following initial cell numbers: 1000 cells per well for HPEK; 3000 cells per well for MDA-MB-231, 8000 cells per well for ZR-75-30, 1500 cells per well for HCC-1395, 1500 cells per well for HCC-1937, 3000 cells per well for T-47D, 1500 cells per well for JURKAT, 5000 cells per well for RPMI-8402, 9000 cells per well for LOUCY, 1500 cells per well for TANQUE, 9000 cells per well for REC-1, 1000 cells per well for HL-60, 1000 cells per well for NB-4, 9000 cells per well for TT, 2000 cells per well for HeLa, 2000 cells per well for 23132/87, 9000 cells per well for SW-948, 700 cells per well for HCT-116, 1500 cells per well for BHY, 700 cells per well for A-431, 1500 cells per well for HEP-G2, 500 cells per well for NCI-H460, 1000 cells per well for A-549, 1500 cells per well for PANC-1, 2500 cells per well for U-87 MG, 700 cells per well for A-375, 1500 cells per well for RVH-421, 2000 cells per well for SW-1353, 500 cells per well for C2C12, 500 cells per well for LL/2, and 3000 cells per well for CF21.T. In a volume of 90 μL per well of culture medium the cells were treated with compounds at indicated final concentrations by adding 10 μL per well of 10× compound working solutions from 1:100 pre-diluted 1000× compound DMSO stock-solutions in H2O (Water For Injection, WFI, Fisher Scientific, Gibco™ #A12873) or with the empty carrier DMSO (AppliChem, #A3672) at 0.1% v/v as control yielding a final volume of 100 μL per well. At day 5 after starting the treatments the cells were subjected to the alamarBlue® Proliferation Assay (Bio-Rad Serotec GmbH, BUF012B) according to the protocol of the manufacturer. The readout was taken with a multi-well plate-reader (Tecan Spark®) in the fluorescence mode with applying a filter for excitation at 560 nm (band width 10 nm) and for emission at 590 nm (band width 10 nm). Treatment for maximum proliferation inhibition with the commercial cytotoxic compound (S)-(+)-camptothecin (Fluorochem #M01564) at a concentration of 10 μM was included on each plate for assay quality control. Some of the test compounds of the present invention may have been obtained and applied as their salt forms.
(§2) The assays were performed in duplicate or more replicates of independent single experiments each containing a three- to six-fold replicate for every condition. […]

A-549 cells = assay: alamarBlue proliferation assay with A-549 cells; settings: read-out: Activity on A-549: IC50, DMEM medium, 10% FBS
Text: as §1, §2

BHY cells = assay: alamarBlue proliferation assay with BHY cells; settings: read-out: Activity on BHY: IC50, DMEM medium, 10% FBS
Text: as §1, §2

NB-4 cells = assay: alamarBlue proliferation assay with NB-4 cells; settings: read-out: Activity on NB-4: IC50, RPMI 1640 medium, 10% FBS
Text: as §1, §2

TANQUE cells = assay: alamarBlue proliferation assay with TANQUE cells; settings: read-out: Activity on TANOUE: IC50, RPMI 1640 medium, 10% FBS
Text: as §1, §2

HCT-116 cells = assay: alamarBlue proliferation assay with HCT-116 cells; settings: read-out: Activity on HCT-116: IC50, McCoy's 5A medium, 10% FBS
Text: as §1, §2

HPEKp cells = assay: proliferation assay with human epidermal keratinocyte progenitors (HPEKp), selectivity versus MDA-MB-231
Text: as §1, §2

MDA-MB-231 cells = assay: alamarBlue proliferation assay with MDA-MB-231 cells (glucose-free Leibovitz's L-15 medium)
Text: as §1, §2

SW-1353 cells = assay: alamarBlue proliferation assay with SW-1353 cells (glucose-free L-15 medium); settings: read-out: Activity on SW-1353: IC50, Leibovitz's L-15 medium, 10% FBS, 0% CO2
Text: as §1, §2

LL/2 cells = assay: alamarBlue proliferation assay with LL/2 cells; settings: read-out: Activity on LL/2: IC50; LL/2 murine Lewis lung carcinoma cells, DMEM medium, 10% FBS
Text: as §1, §2

[2] = read-out: Activity on MDA-MB-231 (IC50), glucose-free Leibovitz's L-15, 10% FBS, day 5, alamarBlue
[3] = read-out: Activity (HPEK), HPEK cells (HPEKp), antiproliferative activity, class by IC50
[4] = read-out: Activity (MDA), MDA-MB-231 cells, antiproliferative activity, class by IC50

SMILES | Activity: relative mitochondrial transmembrane potential Δψm [1] | IC50 (HEP-G2 cells) [nM] | IC50 (A-549 cells) [nM] | IC50 (BHY cells) [nM] | IC50 (NB-4 cells) [nM] | IC50 (TANQUE cells) [nM] | IC50 (HCT-116 cells) [nM] | IC50 (HPEKp cells; read-out: Activity (HPEK): antiproliferative activity on HPEK cells, IC50 category, HPEK cells cultivated in CnT-Prime medium) [nM] | IC50 (MDA-MB-231 cells; read-out: Activity (MDA): antiproliferative activity on MDA-MB-231 cells, IC50 category, MDA-MB-231 cells cultivated in glucose-free Leibovitz's L-15 medium) [nM] | IC50 (MDA-MB-231 cells; [2]) [nM] | IC50 (SW-1353 cells) [nM] | IC50 (HPEKp cells; [3]) [nM] | IC50 (LL/2 cells) [nM] | IC50 (MDA-MB-231 cells; [4]) [nM] | relative mitochondrial transmembrane potential Δψm ([1]; DMSO control = 1.0, compounds 10 μM, DNP 50 μM, TMRE, A-549)
COc1ccc(CN2CCN(C(=O)c3ccc(Oc4ccc(C5CCC(OC)CC5)cc4O)cc3)CC2)cc1 (stereo not shown) | Δψm ≤0.7 | ≤ 200 | ≤ 200 | ≤ 200 | ≤ 1000 | ≤ 1000 | ≤ 1000 |  |  |  |  |  |  |  | 
COc1ccc(CN2CC3(C2)CN(C(=O)c2ccc(Oc4ccc(C5CCC6(CC5)OCCO6)cc4CO)cc2)C3)cc1 |  |  | ≤ 20000 |  |  |  |  | < 10000 | < 1000 | ≤ 5000 | ≤ 5000 |  |  |  | 
O=C1CCC(c2ccc(Oc3ccc(C(=O)N4CCN(Cc5ccc(Cl)cc5)CC4)cc3)c(CO)c2)CC1 | Δψm ≤0.7 | ≤ 200 | ≤ 200 | ≤ 200 | ≤ 200 | ≤ 200 | ≤ 200 |  |  | ≤ 200 |  | < 10000 | ≤ 1000 | < 5000 | 
O=C(c1ccc(Oc2ccc(C3CCCCC3)cc2CO)cn1)N1CCN(Cc2ccc(S(F)(F)(F)(F)F)cc2)CC1 | Δψm ≤0.7 | ≤ 200 | ≤ 200 | ≤ 200 | ≤ 1000 | ≤ 200 | ≤ 200 |  |  |  |  |  | ≤ 200 |  | 
O=C(c1ccc(Oc2ccc(C3CCC4(CCCCO4)CC3)cc2CO)cc1)N1CCN(Cc2ccccc2)CC1 (stereo not shown) | Δψm ≤0.7 |  | ≤ 200 | ≤ 200 | ≤ 200 | ≤ 200 | ≤ 200 |  |  | ≤ 200 | ≤ 200 |  | ≤ 5000 |  | 
Cc1ccc(S(=O)(=O)N2CCN(C(=O)c3ccc(Oc4ccc(C5CCC6(CC5)OCCO6)cc4CO)cc3)CC2)cc1 |  |  | ≤ 5000 |  |  |  |  |  |  | ≤ 5000 | ≤ 5000 | > 10000 |  | < 5000 | 
O=C(c1ccc(Oc2ccc(C3CCC(CO)CC3)cc2CO)cc1)N1CCN(Cc2ccc(Cl)cc2)CC1 (stereo not shown) | Δψm ≤0.7 | ≤ 200 | ≤ 200 | ≤ 200 | ≤ 200 | ≤ 200 | ≤ 200 |  |  | ≤ 200 |  | < 10000 | ≤ 1000 | < 1000 | 
O=[N+]([O-])c1ccc(O)c([N+](=O)[O-])c1 |  |  |  |  |  |  |  |  |  |  |  |  |  |  | 0.2
O=C(c1ccc(Oc2ccc(C3CCC4(CC3)OCCO4)cc2CO)cc1)N1CCN(S(=O)(=O)c2ccc(F)cc2)CC1 |  |  | ≤ 20000 |  |  |  |  |  |  | ≤ 5000 | ≤ 5000 | > 10000 |  | < 1000 | 
COC1CCC(c2ccc(Oc3ccc(C(=O)N4CCN(Cc5ccc(Cl)nc5)CC4)nc3)c(CO)c2)CC1 (stereo not shown) | Δψm ≤0.7 | ≤ 200 | ≤ 200 | ≤ 200 | ≤ 200 | ≤ 200 | ≤ 200 |  |  | ≤ 200 |  | < 10000 | ≤ 1000 | < 1000 | 
